Experiments:
[1] = biological target: T1, Progesterone receptor (Homo sapiens, UniProt P06401)
T1 sequence (P06401 whole entry): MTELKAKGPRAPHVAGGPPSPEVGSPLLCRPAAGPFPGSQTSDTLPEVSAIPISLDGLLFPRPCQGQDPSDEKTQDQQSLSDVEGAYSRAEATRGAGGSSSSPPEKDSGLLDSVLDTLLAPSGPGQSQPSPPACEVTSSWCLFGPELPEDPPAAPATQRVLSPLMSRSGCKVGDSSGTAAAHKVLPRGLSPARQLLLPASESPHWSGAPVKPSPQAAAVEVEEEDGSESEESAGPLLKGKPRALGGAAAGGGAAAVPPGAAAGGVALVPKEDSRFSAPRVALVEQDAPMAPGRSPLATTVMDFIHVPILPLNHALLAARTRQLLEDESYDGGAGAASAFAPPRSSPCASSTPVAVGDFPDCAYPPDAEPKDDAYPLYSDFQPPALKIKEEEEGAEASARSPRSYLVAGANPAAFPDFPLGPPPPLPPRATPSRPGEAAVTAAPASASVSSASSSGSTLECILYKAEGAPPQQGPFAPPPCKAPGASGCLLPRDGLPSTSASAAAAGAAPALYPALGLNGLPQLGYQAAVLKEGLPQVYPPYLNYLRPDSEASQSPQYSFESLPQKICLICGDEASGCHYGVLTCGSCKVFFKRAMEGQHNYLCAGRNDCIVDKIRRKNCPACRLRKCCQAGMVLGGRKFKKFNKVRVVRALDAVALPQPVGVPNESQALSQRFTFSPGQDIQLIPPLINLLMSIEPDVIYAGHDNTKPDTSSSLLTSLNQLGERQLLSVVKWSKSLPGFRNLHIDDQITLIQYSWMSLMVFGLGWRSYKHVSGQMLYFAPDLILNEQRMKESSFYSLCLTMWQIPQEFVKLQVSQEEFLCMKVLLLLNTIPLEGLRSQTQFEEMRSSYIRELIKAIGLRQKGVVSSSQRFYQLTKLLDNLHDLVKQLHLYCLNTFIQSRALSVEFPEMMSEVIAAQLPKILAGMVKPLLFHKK

[2] = biological target: T1, Progesterone receptor; remark: listed apart in the source

Ki [1] | IC50 [2] | Compound
31 nM | 3570 nM | C=C1C=C(C)CC(C)(C)C1Cc1cc(OC)c(Br)cc1O (stereo not given)
109 nM |  | C=C1C=C(C)C(Cc2cc(OC)c(Br)cc2O)C(C)(C)C1 (stereo not given)
119 nM |  | C=C1C=C(C)CC(C)(C)C1Sc1ccc([N+](=O)[O-])cc1 (stereo not given)
243 nM |  | C=C1C=C(C)CC(C)(C)C1(O)Cc1ccc([N+](=O)[O-])cc1 (stereo not given)

Reference: ChEMBL document CHEMBL1129561 (J Med Chem, 1996)
